According to PubChem BioAssay AID1851 (National Center for Advancing Translational Sciences (NCATS), 2009):
This is a selection; strong and weak results do not stand in their true shares. Results filed as inconclusive are left out. Active and inactive are the calls of the source. The call rests on the fitted dose curve; in most records, active means well fitted curve in the direction sought with a large enough effect; inconclusive means small, poorly fitted or top-dose-only effect, or effect the other way; inactive means no such curve, though single readings can be large or run the other way.

Chains of the proteins cited; added tags and fusions are not shown.
UniProt P33261, whole entry, looked up: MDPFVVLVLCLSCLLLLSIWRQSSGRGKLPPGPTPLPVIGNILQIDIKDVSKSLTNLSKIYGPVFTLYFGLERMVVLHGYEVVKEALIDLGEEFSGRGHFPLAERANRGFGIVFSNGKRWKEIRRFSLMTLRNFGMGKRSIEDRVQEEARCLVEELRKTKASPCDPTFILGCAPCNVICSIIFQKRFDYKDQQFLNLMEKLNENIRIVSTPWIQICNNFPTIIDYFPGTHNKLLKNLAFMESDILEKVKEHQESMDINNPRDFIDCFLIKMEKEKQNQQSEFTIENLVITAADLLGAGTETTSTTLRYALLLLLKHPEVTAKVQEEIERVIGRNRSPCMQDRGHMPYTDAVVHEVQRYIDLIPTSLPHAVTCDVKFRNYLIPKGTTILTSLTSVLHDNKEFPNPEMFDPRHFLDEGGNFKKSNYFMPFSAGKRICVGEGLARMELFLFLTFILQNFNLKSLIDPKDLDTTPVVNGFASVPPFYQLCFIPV

molecular target: Cytochrome P450 2C19 (Homo sapiens) (UniProt P33261); experiment: Cytochrome panel assay with activity outcomes; conditions: recombinant CYP, pro-luciferin dealkylation, luminescence; p450-cyp2c19

Structure (SMILES)	AC50
COc1cc(N[C@@H](C)CCCN)c2ncccc2c1	active: 3.98 µM
